Laboratory results taken from patent US7119115B2, “Indazole or indole derivatives, and use thereof in human medicine and more particularly in oncology” (Aventis Pharma S.A., priority 2001, dated 2006).

Amino acid sequences for entries named in this document (tags omitted).
UniProt P02550, whole entry: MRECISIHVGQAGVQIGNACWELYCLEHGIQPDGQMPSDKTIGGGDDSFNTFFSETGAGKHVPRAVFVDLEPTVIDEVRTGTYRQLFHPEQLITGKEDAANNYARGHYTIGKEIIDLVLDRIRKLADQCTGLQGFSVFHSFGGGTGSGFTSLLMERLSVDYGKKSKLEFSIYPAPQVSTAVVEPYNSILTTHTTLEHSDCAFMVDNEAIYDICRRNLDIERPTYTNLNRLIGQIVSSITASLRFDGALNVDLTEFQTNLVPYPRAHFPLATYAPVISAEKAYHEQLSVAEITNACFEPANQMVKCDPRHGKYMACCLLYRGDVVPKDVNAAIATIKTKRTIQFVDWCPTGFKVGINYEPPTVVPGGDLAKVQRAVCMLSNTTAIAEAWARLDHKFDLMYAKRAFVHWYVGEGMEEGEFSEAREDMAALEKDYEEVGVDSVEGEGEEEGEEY
UniProt P02554, whole entry: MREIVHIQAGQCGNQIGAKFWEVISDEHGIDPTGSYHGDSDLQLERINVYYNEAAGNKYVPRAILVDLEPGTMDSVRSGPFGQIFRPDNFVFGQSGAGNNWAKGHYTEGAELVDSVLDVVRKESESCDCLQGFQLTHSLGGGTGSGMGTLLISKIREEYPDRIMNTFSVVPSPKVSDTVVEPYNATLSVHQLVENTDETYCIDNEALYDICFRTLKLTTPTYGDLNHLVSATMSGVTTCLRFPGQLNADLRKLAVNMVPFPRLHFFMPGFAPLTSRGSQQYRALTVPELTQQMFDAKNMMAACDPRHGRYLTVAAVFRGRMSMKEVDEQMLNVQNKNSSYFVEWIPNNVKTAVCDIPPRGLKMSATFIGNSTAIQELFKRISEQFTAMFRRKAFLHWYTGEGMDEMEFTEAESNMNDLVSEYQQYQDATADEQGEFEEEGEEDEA

Biological target: Tubulin (Sus scrofa, UniProt P02550+P02554)
Assay: Evaluation of the inhibition of tubulin polymerization (turbidimetry at 350 nm)
Conditions: read-out: Tubulin IC50; concentration that inhibits the rate of polymerization by 50%; pig brain tubulin 10 μM

Row | Compound | IC50
1 | O/N=C(/c1n[nH]c2c1C=CC(c1ccc(F)cc1)(c1ccc(F)cc1)C2)C1CC1 | 9 µM
2 | O/N=C(\c1n[nH]c2c1C=CC(c1ccccc1)(c1ccc(F)cc1)C2)C1CC1 (single isomer, unassigned) | 0.8 µM
